Experimental data taken from ChEMBL document CHEMBL1146752, “Oxamyl dipeptide caspase inhibitors developed for the treatment of stroke” (Bioorg Med Chem Lett, 2004).

By UniProt entry, the sequences of proteins in these tests, tags left out. Where a name states a change or a piece, a line headed by the entry shows the natural chain unless it says otherwise.
UniProt Q14790: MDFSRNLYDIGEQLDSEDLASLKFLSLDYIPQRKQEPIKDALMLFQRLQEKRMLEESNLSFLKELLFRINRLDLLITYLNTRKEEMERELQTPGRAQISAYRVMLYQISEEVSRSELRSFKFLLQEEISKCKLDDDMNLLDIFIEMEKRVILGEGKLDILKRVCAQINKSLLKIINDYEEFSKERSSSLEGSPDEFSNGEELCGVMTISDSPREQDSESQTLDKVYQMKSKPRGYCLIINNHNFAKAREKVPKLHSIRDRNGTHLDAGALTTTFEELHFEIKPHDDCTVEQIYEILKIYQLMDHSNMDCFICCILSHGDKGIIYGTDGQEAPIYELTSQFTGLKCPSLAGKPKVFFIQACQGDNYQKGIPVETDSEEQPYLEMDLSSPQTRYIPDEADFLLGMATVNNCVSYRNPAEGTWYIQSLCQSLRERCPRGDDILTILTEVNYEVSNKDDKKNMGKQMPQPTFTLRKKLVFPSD

Columns and labels:
SKW 6.4 = test: Inhibitory activity was evaluated against human SKW 6.4 cell line in cellular assay; type: functional, cell-based
How it was run: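 Cellular assay (Con A; SKW 6.4 cells) run for 24 h at 37 °C. Read-out is IC50 (µM).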

Caspase-3 (Homo sapiens) = target: T1, Caspase-3 (Homo sapiens) (UniProt P42574)
T1 sequence (whole entry): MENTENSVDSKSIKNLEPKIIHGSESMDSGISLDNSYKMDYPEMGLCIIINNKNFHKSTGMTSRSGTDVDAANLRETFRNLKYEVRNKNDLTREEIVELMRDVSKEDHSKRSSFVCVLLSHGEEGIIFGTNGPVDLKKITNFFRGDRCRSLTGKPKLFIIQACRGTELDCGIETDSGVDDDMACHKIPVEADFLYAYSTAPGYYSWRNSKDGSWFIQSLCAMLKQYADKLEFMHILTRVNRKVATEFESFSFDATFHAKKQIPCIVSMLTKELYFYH

Caspase-6 (Homo sapiens) = target: T2, Caspase-6 (Homo sapiens) (UniProt P55212)
T2 sequence (whole entry): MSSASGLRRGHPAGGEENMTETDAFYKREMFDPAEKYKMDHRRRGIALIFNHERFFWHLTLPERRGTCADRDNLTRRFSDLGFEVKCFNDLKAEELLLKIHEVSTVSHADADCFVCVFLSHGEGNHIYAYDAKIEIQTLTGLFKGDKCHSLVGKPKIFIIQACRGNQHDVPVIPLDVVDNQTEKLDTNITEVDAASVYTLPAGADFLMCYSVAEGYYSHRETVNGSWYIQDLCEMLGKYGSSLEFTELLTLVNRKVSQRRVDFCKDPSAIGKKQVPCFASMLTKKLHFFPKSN

Caspase-1 (Mus musculus) = target: T3, Caspase-1 (Mus musculus) (UniProt P29452)
T3 sequence (whole entry): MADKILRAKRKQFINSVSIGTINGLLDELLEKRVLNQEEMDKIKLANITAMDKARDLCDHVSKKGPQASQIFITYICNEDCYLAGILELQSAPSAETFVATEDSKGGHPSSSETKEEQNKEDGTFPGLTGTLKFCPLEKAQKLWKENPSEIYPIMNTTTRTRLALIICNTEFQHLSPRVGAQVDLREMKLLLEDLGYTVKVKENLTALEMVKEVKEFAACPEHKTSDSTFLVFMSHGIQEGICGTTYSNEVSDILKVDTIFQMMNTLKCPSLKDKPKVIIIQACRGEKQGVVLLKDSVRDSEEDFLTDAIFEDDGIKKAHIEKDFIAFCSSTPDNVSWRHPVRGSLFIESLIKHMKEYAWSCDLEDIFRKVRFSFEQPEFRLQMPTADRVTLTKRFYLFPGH

Caspase-8 = Caspase-8 (Homo sapiens, UniProt Q14790)
THP-1 = test: Inhibitory activity evaluated against human THP-1 cell line in cellular assay; type: functional, cell-based
How it was run: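 Human cells (monocytes; THP-1 line) in a caspase-1-dependent cellular assay run for 24 h at 37 °C. Read-out is IC50 (µM).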

Compound	IC50 (SKW 6.4)	k3/Ki (Caspase-3 (Homo sapiens))	k3/Ki (Caspase-6 (Homo sapiens))	k3/Ki (Caspase-1 (Mus musculus))	k3/Ki (Caspase-8)	IC50 (THP-1)
CNC(=O)C(=O)N[C@H](C(=O)N[C@@H](CC(=O)O)C(=O)COc1c(F)c(F)cc(F)c1F)C(C)C	–	149000 M⁻¹ s⁻¹	126000 M⁻¹ s⁻¹	16800 M⁻¹ s⁻¹	21200 M⁻¹ s⁻¹	–
O=C(O)C[C@H](NC(=O)C1CCCCN1C(=O)C(=O)Nc1cccc2ccccc12)C(=O)COc1c(F)c(F)cc(F)c1F (stereo not given in full)	–	9850 M⁻¹ s⁻¹	11600 M⁻¹ s⁻¹	36000 M⁻¹ s⁻¹	19500 M⁻¹ s⁻¹	–
CC(C)[C@H](NC(=O)C(=O)Nc1cccc2ccccc12)C(=O)N[C@@H](CC(=O)O)C(=O)COP(C)(=O)c1ccccc1 (stereo not given in full)	–	529000 M⁻¹ s⁻¹	165000 M⁻¹ s⁻¹	1.4e+06 M⁻¹ s⁻¹	847000 M⁻¹ s⁻¹	–
CC(C)[C@H](NC(=O)C(=O)Nc1ccccc1-c1ccccc1)C(=O)N[C@@H](CC(=O)O)C(=O)COc1c(F)c(F)cc(F)c1F	–	158000 M⁻¹ s⁻¹	335000 M⁻¹ s⁻¹	2.59e+06 M⁻¹ s⁻¹	1.27e+06 M⁻¹ s⁻¹	–
CC(C)[C@H](NC(=O)C(=O)Nc1cc(C(C)(C)C)ccc1C(C)(C)C)C(=O)N[C@@H](CC(=O)O)C(=O)COc1c(F)c(F)cc(F)c1F	–	104000 M⁻¹ s⁻¹	308000 M⁻¹ s⁻¹	211000 M⁻¹ s⁻¹	1.34e+06 M⁻¹ s⁻¹	–
CC(C)[C@H](NC(=O)C(=O)Nc1cc(F)c(F)c(F)c1F)C(=O)N[C@@H](CC(=O)O)C(=O)COc1c(F)c(F)cc(F)c1F	–	113000 M⁻¹ s⁻¹	62600 M⁻¹ s⁻¹	266000 M⁻¹ s⁻¹	58900 M⁻¹ s⁻¹	–
CC(C)[C@H](NC(=O)C(=O)Nc1c(F)cc(F)c(F)c1F)C(=O)N[C@@H](CC(=O)O)C(=O)COc1c(F)c(F)cc(F)c1F	–	208000 M⁻¹ s⁻¹	24000 M⁻¹ s⁻¹	416000 M⁻¹ s⁻¹	126000 M⁻¹ s⁻¹	–
CC(C)[C@H](NC(=O)C(=O)Nc1cccc2ccccc12)C(=O)N[C@@H](CC(=O)O)C(=O)COc1cccc2ccccc12	–	11700 M⁻¹ s⁻¹	268 M⁻¹ s⁻¹	378000 M⁻¹ s⁻¹	12 M⁻¹ s⁻¹	–
CC(C)[C@H](NC(=O)C(=O)Nc1ccccn1)C(=O)N[C@@H](CC(=O)O)C(=O)COc1c(F)c(F)cc(F)c1F	–	118000 M⁻¹ s⁻¹	64100 M⁻¹ s⁻¹	22000 M⁻¹ s⁻¹	42200 M⁻¹ s⁻¹	–
CC(C)[C@H](NC(=O)C(=O)Nc1cccc2ccccc12)C(=O)N[C@@H](CC(=O)O)C(=O)COP(=O)(c1ccccc1)c1ccccc1	–	876000 M⁻¹ s⁻¹	222000 M⁻¹ s⁻¹	2.95e+06 M⁻¹ s⁻¹	2.45e+06 M⁻¹ s⁻¹	–

The next lines start with the values.

IC50 (SKW 6.4)	k3/Ki (Caspase-3 (Homo sapiens))	k3/Ki (Caspase-6 (Homo sapiens))	k3/Ki (Caspase-1 (Mus musculus))	k3/Ki (Caspase-8)	IC50 (THP-1)	Compound
1270 nM	1.27e+06 M⁻¹ s⁻¹	504000 M⁻¹ s⁻¹	7.16e+06 M⁻¹ s⁻¹	2.35e+06 M⁻¹ s⁻¹	–	CC(C)[C@H](NC(=O)C(=O)Nc1ccccc1Br)C(=O)N[C@@H](CC(=O)O)C(=O)COc1c(F)c(F)cc(F)c1F
–	149000 M⁻¹ s⁻¹	175000 M⁻¹ s⁻¹	2.57e+06 M⁻¹ s⁻¹	1.83e+06 M⁻¹ s⁻¹	1490 nM	CCCCC(NC(=O)C(=O)Nc1cccc2ccccc12)C(=O)N[C@@H](CC(=O)O)C(=O)COc1c(F)c(F)cc(F)c1F (stereo not given in full)
–	22700 M⁻¹ s⁻¹	18600 M⁻¹ s⁻¹	11700 M⁻¹ s⁻¹	18700 M⁻¹ s⁻¹	–	CCCCCCCc1ccc(NC(=O)C(=O)N[C@H](C(=O)N[C@@H](CC(=O)O)C(=O)COc2c(F)c(F)cc(F)c2F)C(C)C)cc1
–	169000 M⁻¹ s⁻¹	131000 M⁻¹ s⁻¹	1.23e+06 M⁻¹ s⁻¹	667000 M⁻¹ s⁻¹	–	CC(C)[C@H](NC(=O)C(=O)NN(c1ccccc1)c1ccccc1)C(=O)N[C@@H](CC(=O)O)C(=O)COc1c(F)c(F)cc(F)c1F
–	327000 M⁻¹ s⁻¹	275000 M⁻¹ s⁻¹	159000 M⁻¹ s⁻¹	282000 M⁻¹ s⁻¹	–	CC(C)[C@H](NC(=O)C(=O)Nc1ccccc1)C(=O)N[C@@H](CC(=O)O)C(=O)COc1c(F)c(F)cc(F)c1F
–	9460 M⁻¹ s⁻¹	31 M⁻¹ s⁻¹	156000 M⁻¹ s⁻¹	20 M⁻¹ s⁻¹	–	CC(C)[C@H](NC(=O)C(=O)Nc1cccc2ccccc12)C(=O)N[C@@H](CC(=O)O)C(=O)COc1ccc2ccccc2c1
–	323000 M⁻¹ s⁻¹	281000 M⁻¹ s⁻¹	278000 M⁻¹ s⁻¹	396000 M⁻¹ s⁻¹	–	CC(C)[C@H](NC(=O)C(=O)Nc1c(F)cccc1F)C(=O)N[C@@H](CC(=O)O)C(=O)COc1c(F)c(F)cc(F)c1F
–	245000 M⁻¹ s⁻¹	186000 M⁻¹ s⁻¹	191000 M⁻¹ s⁻¹	82700 M⁻¹ s⁻¹	–	CC(C)[C@H](NC(=O)C(=O)Nc1cccc(Oc2ccccc2)c1)C(=O)N[C@@H](CC(=O)O)C(=O)COc1c(F)c(F)cc(F)c1F
–	1.17e+06 M⁻¹ s⁻¹	655000 M⁻¹ s⁻¹	2.02e+06 M⁻¹ s⁻¹	2.14e+06 M⁻¹ s⁻¹	–	CC(C)[C@H](NC(=O)C(=O)Nc1ccccc1Cl)C(=O)N[C@@H](CC(=O)O)C(=O)COc1c(F)c(F)cc(F)c1F
–	1660 M⁻¹ s⁻¹	0 M⁻¹ s⁻¹	58000 M⁻¹ s⁻¹	0 M⁻¹ s⁻¹	–	CC(C)[C@H](NC(=O)C(=O)Nc1cccc2ccccc12)C(=O)N[C@@H](CC(=O)O)C(=O)COc1ccc(-c2ccccc2)cc1
–	139000 M⁻¹ s⁻¹	132000 M⁻¹ s⁻¹	905000 M⁻¹ s⁻¹	1.15e+06 M⁻¹ s⁻¹	–	CC(C)[C@H](NC(=O)C(=O)Nc1cccc2c1CCCC2)C(=O)N[C@@H](CC(=O)O)C(=O)COc1c(F)c(F)cc(F)c1F
–	20500 M⁻¹ s⁻¹	21100 M⁻¹ s⁻¹	46000 M⁻¹ s⁻¹	18700 M⁻¹ s⁻¹	–	CC(C)[C@H](NC(=O)C(=O)NC1CCCc2ccccc21)C(=O)N[C@@H](CC(=O)O)C(=O)COc1c(F)c(F)cc(F)c1F (stereo not given in full)
